Only a part is listed here, and it is no random draw. Some structures show a salt or complex split into parts, the way the source records it. Calls of active or inactive are those of the source. Cut-off read from the data, not from the text of the source: active = potentiation above about 50%; inconclusive = mostly about 30% to 49%; inactive = weaker than that.
Biological target: D(2) dopamine receptor (Homo sapiens) (UniProt P14416)
Assay: Beta-Arrestin HTS for Positive Allosteric Modulators of the Human D2 Dopamine Receptor: Potentiators
Settings: DiscoveRx D2 beta-arrestin cells, luminescence, 90 min; stronger effect = higher value; 100% = 57 uM dopamine signal
Source text: There is great interest in identifying small molecule ligands for G-protein coupled receptors (GPCRs) as nearly 50% of all FDA-approved drugs target these important receptor proteins. […] Amongst the dopamine receptors (DARs), the D2 is arguably one of the most validated drug targets in neurology and psychiatry. For instance, all receptor-based antiparkinsonian drugs primarily work via stimulating the D2 DAR, whereas all FDA-approved antipsychotic agents are antagonists of this receptor. The D2 DAR is also therapeutically targeted in other disorders such as restless legs syndrome, tardive dyskinesia, Tourette's syndrome, and hyperprolactinemia.
To this end, a miniaturized qHTS screen was developed to be screened against the Molecular Libraries Small Molecule Repository (MLSMR). This assay seeks to identify potentiators against the D2 DAR.
NIH Molecular Libraries Probe Production Network [MLPCN]
NIH Chemical Genomics Center [NCGC]
PI Name: David Sibley, National Institutes of Neurological Disorders and Stroke
DiscoveRx D2 cells were thawed from frozen stock and seeded at 2,100 cells/ 3 uL/well media (DiscoveRx Plating Reagent 2) with MultiDrop Combi dispenser (Thermo Scientific, Logan, UT) onto white tissue culture treated 1536-well Aurora plates (Brooks Automation, Chelmsford, MA) and allowed to attach overnight at 37 deg C, 5% CO2. Next, 23 nL/well of compound solutions in DMSO were added with a pintool transfer (Kalypsis, San Diego, CA). As the positive control, 1 uL/well dopamine (EC100, 57 uM final concentration) diluted in buffer (HBSS + 10 mM HEPES + SMB + 0.1 %Tween-20) was dispensed to 1 column of each plate. EC20 (Dopamine at 50 nM final concentration) was dispensed to the rest of the plate except columns 1 &2 which were used as negative control (EC=0, buffer only), 1 uL/well as well. The cells were stimulated by compounds and dopamine for 90 minutes at 37 deg C, 5% CO2, after which 1.5 uL/well of DiscoveRx detection reagent was added with BioRAPTR FRD dispenser. The detection reagent was prepared by mixing of Galacton Star Substrate, Emerald II solution and PathHunter buffer (supplied by the assay kit) together at 1:5:19 proportion accordingly just prior to dispensing. The plates were incubated at ambient temperature for 1 hour and then the luminescent signal was read on ViewLux plate reader (PerkinElmer, Waltham, MA).

Sequences of proteins named here, by UniProt entry; tags and fusion partners are left off.
UniProt P14416, whole entry: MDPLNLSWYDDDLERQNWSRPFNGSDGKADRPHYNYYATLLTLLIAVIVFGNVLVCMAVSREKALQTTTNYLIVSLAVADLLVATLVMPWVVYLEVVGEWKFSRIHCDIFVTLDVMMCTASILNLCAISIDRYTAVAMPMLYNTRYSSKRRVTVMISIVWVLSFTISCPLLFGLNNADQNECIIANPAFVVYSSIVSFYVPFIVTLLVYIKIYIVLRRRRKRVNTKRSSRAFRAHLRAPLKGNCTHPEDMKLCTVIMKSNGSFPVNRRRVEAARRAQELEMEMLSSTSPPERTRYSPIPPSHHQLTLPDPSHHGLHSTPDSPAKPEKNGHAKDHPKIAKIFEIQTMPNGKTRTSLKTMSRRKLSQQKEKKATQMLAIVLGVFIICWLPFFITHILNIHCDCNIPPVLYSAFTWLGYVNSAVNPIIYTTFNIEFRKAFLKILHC

Row | SMILES | potentiation
1 | O=[N+]([O-])c1cc([N+](=O)[O-])c(NCC2CCS(=O)(=O)C2)c([N+](=O)[O-])c1 (stereo not given) | inactive: 1.63%
2 | O=C(NCC1(N2CCCCC2)CCCCC1)c1cccc(C(F)(F)F)c1 | inactive: -8.94%
3 | COc1cc(C(=O)NCC2(N3CCCCC3)CCCCC2)ccc1OC(F)F | inactive: -20.5%
4 | O=C(NCC1(N2CCOCC2)CCCCC1)c1cc(=O)[nH]c2ccccc12 | inactive: 5.42%
5 | CN1CCN(CCOC(=O)C(O)(c2ccccc2)c2ccccc2)CC1 | inactive: -10%
6 | CC(C)c1ccc(C(=O)NCC2(N3CCOCC3)CCCCC2)cc1 | inactive: -25.3%
7 | COc1ccc(NC2CCN(C(=O)OC(C)(C)C)CC2)cc1 | inactive: -6.25%
8 | CCCCn1nnnc1C(c1cccc2ccccc12)N1CCC(n2c(=O)[nH]c3ccccc32)CC1 (stereo not given) | inactive: -3.88%
9 | CCCCn1nnnc1C(c1ccccc1OC(F)(F)F)N1CCC(n2c(=O)[nH]c3ccccc32)CC1 (stereo not given) | inactive: 10.1%
10 | CC(C)c1ccc(NC2CCN(C(=O)OC(C)(C)C)CC2)cc1 | inactive: 0.934%
11 | O=[N+]([O-])c1cc([N+](=O)[O-])c(OC2CCCCC2O)c([N+](=O)[O-])c1 (stereo not given) | inactive: -31.4%
12 | CN(C)c1cccc(C(=O)NCC2(N3CCCCC3)CCCCC2)c1 | inactive: -12.7%
13 | COc1ccc(CN(CCCl)CCCl)cc1Cl | inactive: -1.11%
14 | CCC(c1nnnn1C(C)(C)C)N1CCC(n2c(=O)[nH]c3ccccc32)CC1 (stereo not given) | inactive: -3.69%
15 | O=C(NCC1(N2CCOCC2)CCCCC1)c1cc(F)c(F)cc1Cl | inactive: 6.41%
16 | COc1cc(OC)c(C(=O)NCC2(N(C)C)CCCCC2)cc1OC | inactive: -27%
17 | CCCCn1nnnc1C(c1ccnc2ccccc12)N1CCC(n2c(=O)[nH]c3ccccc32)CC1 (stereo not given) | inactive: -0.952%
18 | O=C(OC1CN2CCC1CC2)c1ccc([N+](=O)[O-])cc1 (stereo not given) | inactive: -0.57%
19 | CN1CCC(Nc2cccc(F)c2)CC1 | inactive: -12.1%
20 | COc1ccc2c(c1O)-c1c(O)c(OC)cc3c1[C@H](C2)[N+](C)(C)CC3.O=[N+]([O-])c1cc([N+](=O)[O-])c([O-])c([N+](=O)[O-])c1[O-] | inactive: -5.58%
21 | O=C(NCC1(N2CCCCC2)CCCCC1)c1cncc(Br)c1 | inactive: 0.839%
22 | O=[N+]([O-])c1cc([N+](=O)[O-])c(Nc2ccc(Cl)cc2)c([N+](=O)[O-])c1 | inactive: -18.2%
23 | COc1ccc(C(c2nnnn2C2CCCC2)N2CCC(n3c(=O)[nH]c4ccccc43)CC2)cc1 (stereo not given) | inactive: -3.41%
24 | CCCOc1ccc(C(=O)NCC2(N(C)C)CCCCC2)cc1OC | inactive: -18.8%
25 | Cc1ccc(C(=O)NCC2(N(C)C)CCCCC2)o1 | inactive: -3.93%

From PubChem BioAssay AID624464 (National Center for Advancing Translational Sciences (NCATS), 2012)
